According to ChEMBL document CHEMBL3988442, “University of Dundee, Small-Polar-MMV Screening Library” (2021):
This is a selection; strong and weak results do not stand in their true shares.

Protein sequences, listed by entry. Tags and fused reporters are not part of them.
UniProt Q13131, whole entry: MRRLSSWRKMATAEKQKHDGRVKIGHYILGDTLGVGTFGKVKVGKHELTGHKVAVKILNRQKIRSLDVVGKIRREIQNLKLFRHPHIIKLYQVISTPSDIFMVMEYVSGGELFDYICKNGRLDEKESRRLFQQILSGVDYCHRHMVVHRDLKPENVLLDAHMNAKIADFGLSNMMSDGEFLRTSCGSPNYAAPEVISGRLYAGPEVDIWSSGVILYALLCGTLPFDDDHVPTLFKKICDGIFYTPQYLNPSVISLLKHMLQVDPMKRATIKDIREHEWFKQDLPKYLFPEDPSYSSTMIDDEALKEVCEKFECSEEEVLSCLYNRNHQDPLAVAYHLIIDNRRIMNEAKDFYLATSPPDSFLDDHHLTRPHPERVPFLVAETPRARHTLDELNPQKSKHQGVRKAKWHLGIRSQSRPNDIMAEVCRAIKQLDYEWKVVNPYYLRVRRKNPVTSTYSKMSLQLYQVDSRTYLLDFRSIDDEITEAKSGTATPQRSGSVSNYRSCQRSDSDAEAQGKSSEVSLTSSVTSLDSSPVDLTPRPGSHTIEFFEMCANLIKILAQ

molecular target: AMP-activated protein kinase, AMPK (Homo sapiens) (UniProt P54646+O43741+P54619+Q9UGJ0+Q9Y478+Q13131+Q9UGI9); assay: AMP-dependent Kinase enzyme assay. An in vitro enzyme assay that detects ADP turnover that is directly proportional to AMPK activity. This uses naive AMPK that is activated during the assay with MK-8722; assay type: functional; parameters: scale not given: direction of the effect not stated beside the values; conditions: 30 µM

| Structure (SMILES) | Percent Effect |
| --- | --- |
| Cc1ccc(NC2CCN(C(C)c3nnc(C)o3)CC2)cc1 (centres undefined) | 10.8% |
| COc1ccc(OC)c(NC2CCN(C)CC2)c1 | -115% |
| COc1ccccc1NC1CCN(Cc2nc(C)c(C)s2)CC1 | -14.5% |
| Cc1nnc(C(C)N2CCC(Nc3ccccc3C)CC2)o1 (centres undefined) | 1.58% |
| COc1ccccc1NC1CCN(Cc2nc(C)ccc2O)CC1 | -13.9% |
| COc1ccccc1NC1CCN(Cc2scnc2C)CC1 | -12.4% |
| COc1ccccc1NC1CCN(Cc2ccc(Br)s2)CC1 | 4.84% |
| COc1ccccc1NC1CCN(Cc2ccc(Br)cc2)CC1 | -2.92% |
| COc1cc(NC2CCN(C(C)c3nnc(C)o3)CC2)cc(OC)c1 (centres undefined) | -47.6% |
